Results reported in patent US9822179B2, “Recombinant TNF ligand family member polypeptides with antibody binding domain and uses therefor” (UNIVERSITAT STUTTGART, priority 2011, dated 2017).

Chains of the proteins cited; added tags and fusions are not shown. Residues count along the entry.
UniProt P07724, 25-608: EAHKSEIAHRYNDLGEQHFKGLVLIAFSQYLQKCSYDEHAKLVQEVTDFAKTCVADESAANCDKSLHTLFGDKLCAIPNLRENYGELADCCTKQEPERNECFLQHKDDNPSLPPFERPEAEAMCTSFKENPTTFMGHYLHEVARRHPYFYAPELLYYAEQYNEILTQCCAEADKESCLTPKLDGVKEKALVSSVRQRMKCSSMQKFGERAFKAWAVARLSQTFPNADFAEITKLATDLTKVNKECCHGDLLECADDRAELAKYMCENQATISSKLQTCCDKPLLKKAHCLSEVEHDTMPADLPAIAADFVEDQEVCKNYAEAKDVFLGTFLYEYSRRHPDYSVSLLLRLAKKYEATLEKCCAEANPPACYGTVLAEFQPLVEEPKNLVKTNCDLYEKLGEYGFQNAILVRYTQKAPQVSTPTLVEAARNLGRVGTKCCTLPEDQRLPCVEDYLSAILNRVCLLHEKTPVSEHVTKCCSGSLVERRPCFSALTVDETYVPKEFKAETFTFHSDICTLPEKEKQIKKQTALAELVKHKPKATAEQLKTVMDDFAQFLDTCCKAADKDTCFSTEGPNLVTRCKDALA

B1: SEQ ID NO: 96: EGFR-specific VH-VL-scTRAIL fusion protein, (GGGGS)3 linker L between VH and VL, FLAG tag; monomeric (protein)
chain: MDWTWRVFCLLAVAPGAHSLEASDYKDDDDKGAEVQLVESGGGLVQPGGSLRLSCAASGFSLTNYGVHWVRQAPGKGLEWLGVIWSGGNTDYNTPFTSRFTISRDNSKNTLYLQMNSLRAEDTAVYYCARALTYYDYEFAYWGQGTTVTVSSGGGGSGGGGSGGGGSDIQLTQSPSFLSASVGDRVTITCRASQSIGTNIHWYQQKPGKAPKLLIKYASESISGVPSRFSGSGSGTEFTLTISSLQPEDFATYYCQQNNNWPTTFGAGTKLEIKRAAAEFTRGTSEETISTVQEKQQNISPLVRERGPQRVAAHITGTRGRSNTLSSPNSKNEKALGRKINSWESSRSGHSFLSNLHLRNGELVIHEKGFYYIYSQTYFRFQEEIKENTKNDKQMVQYIYKYTSYPDPILLMKSARNSCWSKDAEYGLYSIYQGGIFELKENDRIFVSVTNEHLIDMDHEASFFGAFLVGGGGSGGGSTSEETISTVQEKQQNISPLVRERGPQRVAAHITGTRGRSNTLSSPNSKNEKALGRKINSWESSRSGHSFLSNLHLRNGELVIHEKGFYYIYSQTYFRFQEEIKENTKNDKQMVQYIYKYTSYPDPILLMKSARNSCWSKDAEYGLYSIYQGGIFELKENDRIFVSVTNEHLIDMDHEASFFGAFLVGGGGSGGGSTSEETISTVQEKQQNISPLVRERGPQRVAAHITGTRGRSNTLSSPNSKNEKALGRKINSWESSRSGHSFLSNLHLRNGELVIHEKGFYYIYSQTYFRFQEEIKENTKNDKQMVQYIYKYTSYPDPILLMKSARNSCWSKDAEYGLYSIYQGGIFELKENDRIFVSVTNEHLIDMDHEASFFGAFLVG
modifications: VH-VL(EGFR)-scTRAIL fusion protein
notes: EGFR-specific VH-VL-scTRAIL fusion protein, (GGGGS)3 linker L between VH and VL, FLAG tag; monomeric
B2: SEQ ID NO: 125: dimeric EGFR-specific TRAIL fusion protein with albumin binding domain (ABD) between component A and component B (protein)
chain: MDWTWRVFCLLAVAPGAHSLEASDYKDDDDKGAEVQLVESGGGLVQPGGSLRLSCAASGFSLTNYGVHWVRQAPGKGLEWLGVIWSGGNTDYNTPFTSRFTISRDNSKNTLYLQMNSLRAEDTAVYYCARALTYYDYEFAYWGQGTTVTVSSGGGGSDIQLTQSPSFLSASVGDRVTITCRASQSIGTNIHWYQQKPGKAPKLLIKYASESISGVPSRFSGSGSGTEFTLTISSLQPEDFATYYCQQNNNWPTTFGAGTKLEIKRGGSQHDEAVDANSLAEAKVLANRELDKYGVSDYYKNLINNAKTVEGVKALIDEILAALPAAAGNGTSNGTSEFTRGTSEETISTVQEKQQNISPLVRERGPQRVAAHITGTRGRSNTLSSPNSKNEKALGRKINSWESSRSGHSFLSNLHLRNGELVIHEKGFYYIYSQTYFRFQEEIKENTKNDKQMVQYIYKYTSYPDPILLMKSARNSCWSKDAEYGLYSIYQGGIFELKENDRIFVSVTNEHLIDMDHEASFFGAFLVGGGGSGGGSTSEETISTVQEKQQNISPLVRERGPQRVAAHITGTRGRSNTLSSPNSKNEKALGRKINSWESSRSGHSFLSNLHLRNGELVIHEKGFYYIYSQTYFRFQEEIKENTKNDKQMVQYIYKYTSYPDPILLMKSARNSCWSKDAEYGLYSIYQGGIFELKENDRIFVSVTNEHLIDMDHEASFFGAFLVGGGGSGGGSTSEETISTVQEKQQNISPLVRERGPQRVAAHITGTRGRSNTLSSPNSKNEKALGRKINSWESSRSGHSFLSNLHLRNGELVIHEKGFYYIYSQTYFRFQEEIKENTKNDKQMVQYIYKYTSYPDPILLMKSARNSCWSKDAEYGLYSIYQGGIFELKENDRIFVSVTNEHLIDMDHEASFFGAFLVG
modifications: VH-VL(EGFR)-ABD-Glyco-scTrail

How the values were obtained:
[1] = tested on: EGFR low/negative HepG2 cells; test: Target-independent induction of cell death, HepG2, crystal violet; format: cell-based
Protocol: (§1) Cell viability was determined using crystal violet staining. Results from four independent experiments are shown (mean±S.E.M.). (B) Jurkat cells (1×10^5/well) were used for a similar experiment as described in (A). Jurkat cells were not sensitized. Results from three independent experiments are shown (mean±S.E.M.). Viability of Jurkat cells was determined using the MTT assay.
(§2) As a positive control, cells were killed with 0.25% Triton X-100. Cell death assays with Huh-7 and HepG2 cells were performed in the absence (FIG. 6, Jurkat cells) or presence of Bortezomib (FIG. 7, Huh-7: 250 ng/ml, FIG. 6, HepG2: 500 ng/ml, FIG. 18, Huh-7: 250 ng/ml), Selleck Chemicals, Houston, Tex.). Bortezomib was added 30 min prior incubation with the proapoptotic ligands to sensitize cells for the induction of cell death (FIGS. 6, 7). Alternatively, cells were preincubated for 30 min with the indicated concentrations of TRAIL fusion proteins followed by addition of serial dilutions of Bortezomib (FIG. 8). TRAIL only treated cells are shown in each panel for the applied TRAIL concentration (Bortezomib 0 ng/ml) (FIG. 8). After 16 h incubation, cell viability was determined either by crystal violet staining (Huh-7, HepG2) or the MTT method (Jurkat) (Wuest et al., 2002). In the latter case a lysis buffer consisting of 15% SDS in DMF/H2O (1:1), pH 4.5 (with […]) acetic acid) was used.

Jurkat cells = test: Target-independent induction of cell death, Jurkat, MTT assay; format: cell-based; conditions: not sensitized; SEQ ID NO: 102 compared to KillerTRAIL
Protocol: as §1, §2

[2] = tested on: EGFR+ Huh-7 hepatocellular carcinoma cells; test: EGFR-directed induction of cell death in Huh-7 cells, serial dilutions of protein, crystal violet; format: cell-based
Protocol: After 16 h, cell viability was determined using MTT staining (Colo 205) or crystal violet staining (Huh-7) and data were normalized using bortezomib-treated cells as control (mean SEM, n=3). (B) 1×10^4 Colo205 cells per well were grown in 96-well plates using medium with 0.1% FCS. […] (C) 1×10^4 Huh-7 cells per well were grown in 96-well plates and treated with 20 ng/ml bortezomib or with a combination of bortezomib and 10 μM zVADfmk.
After 16 h, cell viability was determined using crystal violet staining. […] The values for SEQ ID NO: 102 were plotted in both panels for comparison.
as §2

[3] = tested on: Huh-7 hepatocellular carcinoma cells; test: Cell death in Huh-7 cells, constant protein concentration, serial dilutions of Bortezomib; format: cell-based
Protocol: FIG. 8: EGFR-directed induction of cell death in Huh-7 hepatocellular carcinoma cells as in FIG. 7 with the exception that constant concentrations of the test proteins were used for preincubation (30 min), followed by addition of serial dilutions of Bortezomib. Control: Bortezomib alone. Results from three independent experiments are shown (mean±S.E.M.).
as §2

EGFR+ Huh-7 cells = test: Binding of scTRAIL fusion proteins to Huh-7 cells, flow cytometry with competition; conditions: 2 μg/ml fusion protein
Protocol: (§3) “scFv” represents an anti-EGFR specific antibody fragment used for competition.
(§4) 5×10^5 cells were suspended in PBA buffer (PBS, 0.025% BSA, 0.02% sodium azide) and incubated for 1 h at 4° C. with the indicated scTRAIL fusion proteins (2 μg/ml). After washing the cells three times with PBA buffer, bound fusion proteins were detected by anti-human TRAIL mAb MAB687 (2.5 μg/ml, R&D Systems) and fluorescein isothiocyanate-labelled rabbit anti-mouse IgG Ab (1:200, Sigma-Aldrich), followed by three washing steps with PBA each. […] Expression of TRAIL receptors was detected by anti-TRAIL R1 mAb MAB347 and anti-TRAIL R2 mAb MAB6311 (4 μg/ml each, R&D Systems) in conjunction with anti-mouse IgG-FITC. EGFR expression was detected by a phycoerythrin-labelled anti-human EGFR mAb sc-101 (4 μg/ml, Santa Cruz Biotech., Santa Cruz, Calif.) (see FIG. 4).

[4] = tested on: EGFR low/neg. HepG2 cells; test: Binding of scTRAIL fusion proteins to HepG2 cells, flow cytometry with competition; conditions: 2 μg/ml fusion protein
Protocol: as §3, §4

[5] = Pharmacokinetics in CD1 mice, 25 μg i.v., ELISA of serum samples; format: in vivo
Protocol: 25 μg of protein were injected i.v. in CD1 mice and serum samples were taken at the depicted time points followed by detection of scTRAIL molecules via ELISA.
To this end, 25 μg of fusion proteins were injected i.v. in CD1 mice and serum samples were analyzed at certain time points after injection by ELISA assay (FIG. 19).

[6] = target: human serum albumin (HSA) (Homo sapiens, UniProt P02768); test: Albumin binding assay by size exclusion chromatography, HSA; conditions: 1 h at RT, equimolar HSA
Protocol: (§5) Both proteins were incubated for 1 h at RT with equimolar concentrations of human serum albumin (HSA) or mouse serum albumin (MSA) and subsequently separated by size exclusion chromatography. Thyroglobulin (669 kDa), apoferritin (443 kDa), -amylase (200 kDa), bovine serum albumin (67 kDa), carbonic anhydrase (29 kDa) and FLAG peptide (1 kDa) were used as standard proteins/peptides.

[7] = target: mouse serum albumin (MSA) (Mus musculus, UniProt P07724); test: Albumin binding assay by size exclusion chromatography, MSA; conditions: 1 h at RT, equimolar MSA
Protocol: as §5

| albumin binding [6] | albumin binding [7] | Molecule | influence of excess Cetuximab on apoptosis inducing activity ([1]; 70 nM Cetuximab, at least 7-fold excess) | bioactivity on target negative cells, comparison in words ([1]; comparator named in value) | apoptosis-inducing activity on Jurkat cells (Jurkat cells) | apoptosis-inducing activity compared to scTRAIL (SEQ ID NO: 104) ([2]; 250 ng/ml Bortezomib) | synergy with Bortezomib ([3]; protein concentration of 0.05 nM) | induction of apoptosis when sensitized with Bortezomib ([3]; protein concentration of 1 nM and above) | binding to Huh-7 cells, competition by excess of anti-EGFR specific antibody fragment (EGFR+ Huh-7 cells) | binding to HepG2 cells, competition by anti-EGFR huC225 [4] | bioactivity compared to SEQ ID NO: 102 ([2]; 250 ng/ml bortezomib, 16 h) | in vivo serum half-life [5] |
| --- | --- | --- | --- | --- | --- | --- | --- | --- | --- | --- | --- | --- |
| – | – | B1 | not influenced | did not differ from the one of SEQ ID NO: 104 | no reactivity | tenfold | able to synergize with Bortezomib | nearly equally efficient in induction of complete apoptosis | partially blockable | weaker and non-blockable binding | – | – |
| verified | verified | B2 | – | – | – | – | – | – | – | – | bioactivity comparable to the dimeric TRAIL fusion protein lacking an ABD | about 20 hours |
